# Measurements as given in PMC11860776 (Viruses, 2025).
# Tested on: UT7/EpoS1 cells
# Test: Cell cytotoxicity assay (alamarBlue HS) in UT7/EpoS1 cells
# Assay type: cell-based
# Details: 6 h + 48 h with compound, table: mean (95% CI)
substance,measurement,value
Avermectin B1,CC50,19.5 µM
